Test results taken from PubChem BioAssay AID793 (The Scripps Research Institute Molecular Screening Center, 2007).
The entries are a selection whose mix differs from that of the whole data set. Activity calls are given as the source filed them. Cut-off read from the data, not from the text of the source: active = inhibition above about 17%; inactive = the rest.

By UniProt entry, the sequences of proteins in these tests, tags left out.
UniProt P49146, whole entry: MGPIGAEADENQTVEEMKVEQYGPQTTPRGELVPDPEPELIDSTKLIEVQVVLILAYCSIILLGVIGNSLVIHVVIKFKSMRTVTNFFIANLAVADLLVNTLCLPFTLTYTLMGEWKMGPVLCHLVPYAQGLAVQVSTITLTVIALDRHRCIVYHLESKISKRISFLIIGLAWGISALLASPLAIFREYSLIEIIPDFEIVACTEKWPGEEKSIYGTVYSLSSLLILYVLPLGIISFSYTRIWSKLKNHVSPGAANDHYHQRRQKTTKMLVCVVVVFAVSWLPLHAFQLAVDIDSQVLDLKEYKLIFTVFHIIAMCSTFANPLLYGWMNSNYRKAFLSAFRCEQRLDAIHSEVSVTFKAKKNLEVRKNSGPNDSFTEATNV

Target: Neuropeptide Y receptor type 2 (Homo sapiens) (UniProt P49146)
Test: NPY-Y2 receptor antagonists, primary screen, cell-based (AID 793);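 note: 0% = vehicle with agonist challenge and 100% = reference antagonist with challenge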
Settings: NPY-Y2 expressing cells, antagonist mode; at 2.7 µM; stronger effect = higher value

SMILES	inhibition
c1ccc(CN2CCC(Nc3ccccc3)CC2)cc1	inactive: 2.52%
N/C(=N\O)c1c(N)no[n+]1[O-]	inactive: 2.13%
O=C(OC1CN2CCC1CC2)C1c2ccccc2C=Cc2ccccc21 (stereo not drawn)	inactive: 3.88%
CCOc1ncccc1C(=O)NCC1(N2CCOCC2)CCCCC1	inactive: -0.28%
CCC(CO)(C(=O)OC1CN2CCC1CC2)c1ccccc1 (stereo not drawn)	inactive: 2.42%
CCN1CCC(Nc2cccc(F)c2)CC1	inactive: 2.9%
COc1ccc(NC2CCN(CCc3ccccc3)CC2)c(OC)c1	inactive: 1.81%
O=C(NCC1(N2CCOCC2)CCCCC1)c1cc2ccccc2o1	inactive: -0.03%
O=C(OC1CN2CCC1CC2)C1c2ccccc2Oc2ccccc21 (stereo not drawn)	inactive: 7.6%
CN1CCC(Nc2cccc(F)c2)CC1	inactive: 1.57%
N#CC1(Nc2ccccc2)CCN(CCc2ccccc2)CC1	inactive: 1.19%
CN1CCN(CCOC(=O)C(O)(c2ccccc2)c2ccccc2)CC1	inactive: 1.98%
O=C(NCC1(N2CCOCC2)CCCCC1)c1cc(=O)[nH]c2ccccc12	inactive: 0.55%
